This is a selection; strong and weak results do not stand in their true shares. The source made the active and inactive calls. Rule for the calls: active = hit-call score of the fitted dose curve at least 0.9, where 1 is the maximum; inactive = score below 0.9.

The nature of this experiment: ATG_NFI_CIS: Attagene CIS-FACTORIAL HepG2 Assay for human Nuclear Factor I (NFI) (AID 2282989). The settings on record: HepG2 cis-regulatory reporter, NFI response element transcription; actives raise or lower the signal. The procedure:
ATG_CIS is a cell-based, multiplexed-readout assay that uses HepG2, a human liver cell line, with measurements taken at 24 hours after chemical dosing in a 24-well plate.ATG_NFI_CIS is one of 52 assay component(s) measured or calculated from the ATG_CIS assay. It is designed to make measurements of mRNA induction, a form of inducible reporter, as detected with fluorescence intensity signals by Reverse transcription polymerase chain reaction (RT-PCR) and Capillary electrophoresis technology.Data from the assay component ATG_NFI_CIS was analyzed into 1 assay endpoint. This assay endpoint, ATG_NFI_CIS, was analyzed with bidirectional fitting relative to DMSO as the negative control and baseline of activity. Using a type of inducible reporter, measures of mRNA for gain or loss-of-signal activity can be used to understand the reporter gene at the transcription factor-level as they relate to the gene NFIA. Furthermore, this assay endpoint can be referred to as a primary readout, because this assay has produced multiple assay endpoints where this one serves a reporter gene function. To generalize the intended target to other relatable targets, this assay endpoint is annotated to the dna binding intended target family, where the subfamily is nuclear factor I.
Human liver HepG2 cells are transiently transfected with multiple reporter transcription units (MRTUs) in 6-well plates using FuGene 6 reagent (Roche; 3 ml FuGene/1 mg DNA). The MRTU constructs are regulated by a cis-regulating element (promoter). […] A major difference between the CIS and TRANS system is that in CIS activities of endogenous TFs are measured, whereas the TRANS assay evaluates changes in activities of exogenous, chimeric NR-Gal4 proteins. […] At the end of 24 hour incubation, total RNA was isolated using TriZol reagent (Invitrogen). The isolated RNA is then reverse-transcribed using oligo(dT) primer and Mo-MLV reverse transcriptase (Invitrogen) with DNAse I (Ambion) treatment for 30 min. The one-tenth of the produced cDNA was amplified by PCR using Taq DNA polymerase (Invitrogen) and two reporter sequence-specific primers. The PCR products were fluorescently labeled by primer extension with 6-arboxyfluorescein (6-FAM) 5'-labeled reporter sequence-specific primer (2 min at 95 C, 20 s at 68 C and 10 min at 72 C) and these products were digested with 5U of HpaI (New England Biolabs) for 2h at 37 C. The fragments were purified using Qiaquick PCR columns (Qiagen), analyzed on an ABI 3130xL genetic analyzer (Applied Biosystems) with peak positions identified by using a set of X-rhodamine (ROX)-labeled MapMarker1000 molecular weight standards (BioVentures). The raw capillary electrophoresis data was processed using Attagraph software (Attagene).
On to `CC(C)OP(C)(=O)OC(C)C`, for which the compound was called inactive. As for `N#CBr`, the entry is “inactive”; as for `O=[N+]([O-])c1cccc([N+](=O)[O-])c1`, “inactive”; as for `COP(C)(=O)OC`, “inactive”.

On to `Cc1cccc([N+](=O)[O-])c1[N+](=O)[O-]`, for which the result was inactive.

In the case of `Cc1ccc([N+](=O)[O-])cc1[N+](=O)[O-]`, the call was inactive. As to `Cc1c([N+](=O)[O-])cccc1[N+](=O)[O-]`, the result was inactive. Under `O=[N+]([O-])OCC(CO[N+](=O)[O-])(CO[N+](=O)[O-])CO[N+](=O)[O-]` stands “inactive”; under `Cc1ccc([N+](=O)[O-])c([N+](=O)[O-])c1`, “inactive”; under `CN(C)CCCl`, “inactive”.

On to `COc1ccc([N+](=O)[O-])cc1[N+](=O)[O-]`, for which the compound was called inactive. `CC(C)N(CCO)C(C)C`: the compound was called inactive.

Source of the values: PubChem BioAssay (EPA / NIEHS).
